From ChEMBL document CHEMBL5042526, “Design, Synthesis, and Biological Evaluation of Triazolone Derivatives as Potent PPARα/δ Dual Agonists for the Treatment of Nonalcoholic Steatohepatitis” (J Med Chem, 2022)

The chains behind the UniProt entries cited, without tags or fusion partners. Where a name states a change or a piece, a line headed by the entry shows the natural chain unless it says otherwise.
UniProt P37231: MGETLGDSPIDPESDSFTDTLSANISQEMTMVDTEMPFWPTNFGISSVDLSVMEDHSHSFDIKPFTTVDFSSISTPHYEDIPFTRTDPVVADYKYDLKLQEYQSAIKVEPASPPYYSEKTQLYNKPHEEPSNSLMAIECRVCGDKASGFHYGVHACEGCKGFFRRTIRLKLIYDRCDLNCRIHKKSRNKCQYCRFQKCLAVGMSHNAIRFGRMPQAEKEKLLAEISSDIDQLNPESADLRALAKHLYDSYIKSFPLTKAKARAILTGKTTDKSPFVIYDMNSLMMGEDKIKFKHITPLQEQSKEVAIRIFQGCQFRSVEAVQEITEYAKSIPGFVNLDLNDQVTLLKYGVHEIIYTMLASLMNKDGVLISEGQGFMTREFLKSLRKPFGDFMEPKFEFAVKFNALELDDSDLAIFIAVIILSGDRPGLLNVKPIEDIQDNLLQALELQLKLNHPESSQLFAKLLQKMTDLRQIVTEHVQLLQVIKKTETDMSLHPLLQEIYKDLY

Experiments:
Details in all cases: filed as agonist, dose 10.0 nM
[1] = biological target: T1, Peroxisome proliferator-activated receptor alpha (Homo sapiens) (UniProt Q07869)
T1 sequence (whole entry): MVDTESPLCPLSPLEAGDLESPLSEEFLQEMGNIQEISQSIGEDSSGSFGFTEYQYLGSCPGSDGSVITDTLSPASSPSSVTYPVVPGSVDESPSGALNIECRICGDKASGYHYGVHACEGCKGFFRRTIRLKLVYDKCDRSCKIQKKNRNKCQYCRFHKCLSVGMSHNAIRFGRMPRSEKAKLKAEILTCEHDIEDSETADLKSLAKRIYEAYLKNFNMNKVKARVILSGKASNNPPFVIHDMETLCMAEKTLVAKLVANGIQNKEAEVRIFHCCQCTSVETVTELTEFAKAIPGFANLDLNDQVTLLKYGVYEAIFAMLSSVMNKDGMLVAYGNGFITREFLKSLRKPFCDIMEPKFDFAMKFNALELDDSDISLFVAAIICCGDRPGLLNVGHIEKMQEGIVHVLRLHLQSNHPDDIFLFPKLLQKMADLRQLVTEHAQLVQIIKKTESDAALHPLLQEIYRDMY

[2] = biological target: Peroxisome proliferator-activated receptor gamma (Homo sapiens, UniProt P37231)
[3] = biological target: T2, Peroxisome proliferator-activated receptor delta (Homo sapiens) (UniProt Q03181)
T2 sequence (whole entry): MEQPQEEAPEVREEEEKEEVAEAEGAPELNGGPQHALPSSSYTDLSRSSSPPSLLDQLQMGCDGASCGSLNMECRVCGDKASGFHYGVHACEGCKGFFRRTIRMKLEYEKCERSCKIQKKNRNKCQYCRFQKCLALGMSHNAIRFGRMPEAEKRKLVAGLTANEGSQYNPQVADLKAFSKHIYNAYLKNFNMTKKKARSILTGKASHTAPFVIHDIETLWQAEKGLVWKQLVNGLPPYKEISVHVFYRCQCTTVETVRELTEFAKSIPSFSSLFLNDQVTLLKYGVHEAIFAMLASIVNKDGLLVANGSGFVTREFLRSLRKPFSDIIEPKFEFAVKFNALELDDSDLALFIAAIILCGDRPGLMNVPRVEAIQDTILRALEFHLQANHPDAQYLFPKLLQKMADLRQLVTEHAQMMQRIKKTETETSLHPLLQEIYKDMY

| SMILES | Emax [1] [%] | Emax [2] [%] | Emax [3] [%] |
| --- | --- | --- | --- |
| Cc1cc(Cn2ncn(-c3ccc(C(F)(F)F)cc3)c2=O)cc(C)c1OC(C)(C)C(=O)O | 102 |  |  |
| CC(C)(Oc1c(Cl)cc(Cn2ncn(-c3ccc(C(F)(F)F)cc3)c2=O)cc1Cl)C(=O)O | 101 | 87 |  |
| Cc1cc(Cn2ncn(-c3ccc(C(C)C)cc3)c2=O)cc(C)c1OC(C)(C)C(=O)O | 92 | 134 |  |
| CC(C)(Oc1c(F)cc(Cn2ncn(-c3ccc(C(F)(F)F)cc3)c2=O)cc1F)C(=O)O |  |  | 76 |
| CC(C)(Oc1ccc(Cn2ncn(-c3ccc(OC(F)(F)F)cc3)c2=O)cc1C(F)(F)F)C(=O)O | 134 | 98 |  |
| Cc1cc(CCn2ncn(-c3ccc(C(F)(F)F)cc3)c2=O)cc(C)c1OC(C)(C)C(=O)O |  | 46 | 101 |
| Cc1cc(Cn2ncn(-c3ccc(C(F)(F)F)cc3)c2=O)cc(C(F)(F)F)c1OC(C)(C)C(=O)O |  | 150 | 98 |
| Cc1cc(Cn2ncn(-c3ccc(F)cc3)c2=O)cc(C)c1OC(C)(C)C(=O)O | 106 |  | 116 |
| Cc1cc(Cn2ncn(-c3cccc(C(F)(F)F)c3)c2=O)cc(C)c1OC(C)(C)C(=O)O |  |  | 117 |
| CCc1cc(Cn2ncn(-c3ccc(C(F)(F)F)cc3)c2=O)cc(CC)c1OC(C)(C)C(=O)O | 131 |  | 83 |
| Cc1cc(Cn2ncn(-c3ccc(Br)cc3)c2=O)cc(C)c1OC(C)(C)C(=O)O |  | 151 | 122 |
| Cc1cc(Cn2ncn(-c3ccccc3)c2=O)cc(C)c1OC(C)(C)C(=O)O |  | 80 |  |
| Cc1cc(Cn2ncn(-c3ccc(C(F)(F)F)cc3)c2=O)ccc1OC(C)(C)C(=O)O | 108 |  | 85 |
| Cc1cc(Cn2ncn(-c3ccc(OC(F)(F)F)cc3)c2=O)cc(C(F)(F)F)c1OC(C)(C)C(=O)O | 98 |  | 111 |
| Cc1cc(Cn2ncn(-c3ccc(-c4ccccc4)cc3)c2=O)cc(C)c1OC(C)(C)C(=O)O |  |  | 93 |
| CC(C)(Oc1ccc(Cn2ncn(-c3ccc(C(F)(F)F)cc3)c2=O)cc1)C(=O)O |  |  | 93 |
| CC(C)(Oc1ccc(Cn2ncn(-c3ccc(C(F)(F)F)cc3)c2=O)cc1C(F)(F)F)C(=O)O |  | 115 | 102 |
| Cc1cc(SCn2ncn(-c3ccc(C(F)(F)F)cc3)c2=O)cc(C)c1OC(C)(C)C(=O)O | 92 | 96 |  |
